From patent US20220143226A1, “USE OF TRIAZOLO[4,5-D]PYRIMIDINE DERIVATIVES” (UNIVERSITÉ DE LIÈGE, priority 2019, published 2022)

Experiments:
Type in all cases: cell-based, human
HT29 cells = test: Radiotracer uptake into HT29 cells
Method: (§1) THP1 (ATCC® TIB-202™) and HL60 (ATCC® CCL-240™) cell lines were grown in RPMI 1640 tissue culture medium supplemented with L-glutamine, 10% foetal calf serum and 1% penicillin/streptomycin at 37° C. and 5% CO2. HT29 cell line (ATCC® HTB-38) was grown in McCoy's 5A medium and 10% foetal bovine serum at 37° C. and 5% CO2.
(§2) Non-adherent cell lines (HL60, THP1; 1×10^6 cells ml^−1) were harvested, washed and resuspended in 1 ml tissue culture medium. The adherent cells HT29 were maintained in 6-well plates at 80% confluence.
(§3) Bacteria and non-adherent cells were harvested by centrifugation (600×g, 5 min) and washed three times by successive centrifugations. Cell supernatants were collected in scintillation vials. After washing, the cells were transferred into scintillation vials. Adherent cells were washed three times with fresh medium (McCoy's 5A medium plus 10% foetal bovine serum). Supernatants were collected into scintillation vials. Adherent cells were detached by trypsin treatment and placed into scintillation vials. The scintillation vials for cells and supernatants were counted by gamma counter. Results were obtained as counts per min. Results were normalised for controls (no cells) and by calculating the percentage of activity in the cell containing scintillation vials compared with the total counts (cells and supernatant combined).

THP1 cells = test: Radiotracer uptake into THP1 cells
Method: as §1, §2, §3

HL60 cells = test: Radiotracer uptake into HL60 cells
Method: as §1, §2, §3

^18F-fluorodeoxyglucose [^18F-FDG, reference compound]
uptake: uptake into HT29 (tumor) cells (HT29 cells) | uptake into THP1 (leukocytic) cells (THP1 cells) | uptake into HL-60 (leukocytic) cells (HL60 cells)
